Literature values, collected in patent US8765940B2 (priority 2009, dated 2014).

By UniProt entry, the sequences of proteins in these tests, tags left out.
UniProt P42338, whole entry, species assumed: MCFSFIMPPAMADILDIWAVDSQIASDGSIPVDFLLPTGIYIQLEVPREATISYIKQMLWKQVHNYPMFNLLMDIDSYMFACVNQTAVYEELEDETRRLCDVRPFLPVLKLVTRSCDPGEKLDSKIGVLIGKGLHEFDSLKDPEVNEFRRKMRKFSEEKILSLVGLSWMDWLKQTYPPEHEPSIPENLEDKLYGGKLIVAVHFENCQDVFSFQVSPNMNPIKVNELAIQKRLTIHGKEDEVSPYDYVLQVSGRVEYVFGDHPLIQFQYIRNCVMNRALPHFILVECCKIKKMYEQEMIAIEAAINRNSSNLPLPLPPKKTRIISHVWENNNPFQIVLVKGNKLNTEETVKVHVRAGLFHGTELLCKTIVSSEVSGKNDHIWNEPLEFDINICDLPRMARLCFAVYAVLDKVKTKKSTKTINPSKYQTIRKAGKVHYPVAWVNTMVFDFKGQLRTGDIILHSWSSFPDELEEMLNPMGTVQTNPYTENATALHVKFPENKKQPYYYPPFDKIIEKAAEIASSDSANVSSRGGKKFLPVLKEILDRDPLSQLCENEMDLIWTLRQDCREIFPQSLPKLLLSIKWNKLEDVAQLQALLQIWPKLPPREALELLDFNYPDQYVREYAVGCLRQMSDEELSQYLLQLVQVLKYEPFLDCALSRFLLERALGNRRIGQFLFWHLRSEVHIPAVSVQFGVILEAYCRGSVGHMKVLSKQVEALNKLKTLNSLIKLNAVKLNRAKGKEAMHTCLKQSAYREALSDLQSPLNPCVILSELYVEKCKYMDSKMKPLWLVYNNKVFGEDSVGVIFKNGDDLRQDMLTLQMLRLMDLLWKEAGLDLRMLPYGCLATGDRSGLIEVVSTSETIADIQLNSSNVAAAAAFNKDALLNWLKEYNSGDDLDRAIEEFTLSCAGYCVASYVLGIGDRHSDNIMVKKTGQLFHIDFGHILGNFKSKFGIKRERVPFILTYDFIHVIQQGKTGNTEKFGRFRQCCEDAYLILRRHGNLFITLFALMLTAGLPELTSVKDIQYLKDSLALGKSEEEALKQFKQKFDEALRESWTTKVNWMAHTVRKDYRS

Molecular target: p110β (Homo sapiens (Human), UniProt P42338)
Conditions: read-out: potency on beta; cited from earlier work

Structure (SMILES): Cc1cc(C(C)Nc2ccccc2)c2nc(N3CCOCC3)cc(=O)n2c1 (stereo not shown) [TGX-221]
- pIC50: 8.15

pIC50: −log10 of the molar value.
